scFv variants of Ab-14 (light chain) against a SARS-CoV-2 spike peptide

From the AlphaSeq antibody data of Engelhart et al. 2022 (doi:10.1038/s41597-022-01779-4), copy in the FLAb collection.

All variants were tested on one target, the spike HR2 peptide PDVDLGDISGINAS (SARS-CoV-2).

Parent: Ab-14, a human scFv built as VH, three GGGGS repeats, VL. Only the CDRs of the light chain vary.
VH: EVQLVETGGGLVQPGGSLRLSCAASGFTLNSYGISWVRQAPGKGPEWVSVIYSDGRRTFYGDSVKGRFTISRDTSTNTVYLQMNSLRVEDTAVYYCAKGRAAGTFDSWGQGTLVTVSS
VL: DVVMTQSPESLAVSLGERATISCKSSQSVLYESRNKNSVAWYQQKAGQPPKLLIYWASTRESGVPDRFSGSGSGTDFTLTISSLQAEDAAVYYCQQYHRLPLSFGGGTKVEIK

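The starting antibody came from a phage panning campaign against this peptide. AAYL50 was designed without a model: most single CDR substitutions and a random sample of double and triple ones. Affinity was read by AlphaSeq, a pooled yeast mating assay with surface-displayed partners. Pairs that bind mate more often; barcode pairs of the diploids are counted by sequencing. A regression on co-assayed BCL2-family reference pairs converts the normalised counts of each replicate to an apparent Kd. The assay was run in three technical replicates.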

Variants are written as CDR1, CDR2 and CDR3 of the light chain (limits as in the source). Parent: KSSQSVLYESRNKNSVA, WASTRES, QQYHRLPLS.
All variants listed here change S26 of the VL, counted from its first residue.
The Kd shown is the geometric mean over detected replicates; a lower Kd is a better binder.
A pair that was not seen in any replicate is written "no signal"; this usually means weak binding, but a binder can also be missed.
The list is sorted by this average, lowest first, undetected variants last.
In this assay the parent's reference entry averaged 4.4 nM; its copy inside this library read 48 nM.
Empty control strains, which show no peptide, gave a signal in 18% of pairings with library AAYL50; the median was 15 µM and 95% of these signals were weaker than 970 nM. No background was subtracted.

With KSPQAVLYESRNKQSVA | WASTRES | QQYHRLPLS the result was 1.8 nM (3 of 3 replicates).
With KSGQSVLYEDRNKNSVA | FASTRES | QQYHRLPLS the result was 3.9 nM (3 of 3 replicates).
With KSMQSVLYESRNKNSVA | WASTRES | QQYHRAPLS the result was 6.5 nM (3 of 3 replicates).
With KSGMSSLYESRNKNSVA | WASTRES | QQYHRLPLS the result was 7.7 nM (3 of 3 replicates).
With KSRQSVLYESRNKNSVA | WASTRES | QQYHRLPLS the result was 16 nM (3 of 3 replicates).
With KSQQSVLYESRIKNSVA | WASTRES | QQYHRLPLS the result was 18 nM (3 of 3 replicates).
With KSYQSVLYESRNKNSVA | WASTRES | QQYHRLPLS the result was 23 nM (3 of 3 replicates).
With KSLQSVLFESRNKNSVA | WASTRES | QQYHRLPLS the result was 33 nM (3 of 3 replicates).
With KSLQSVGYESRNKNSVA | WASTRES | QQYHRLPLF the result was 35 nM (3 of 3 replicates).
With KSCQSSLYESRNKNSVA | WASTRES | QQYFRLPLS the result was 42 nM (3 of 3 replicates).
With KSNQSVLYESRNKNSVA | WAKTRES | QQYHRLGLS the result was 56 nM (3 of 3 replicates).
With KSFQSVLYESRNQNSVA | WASTRES | QQYGRLPLS the result was 64 nM (3 of 3 replicates).
With KHCPSVLYESRNKNSVA | WASTRES | QQYHRLPLS the result was 95 nM (3 of 3 replicates).
With KSPQSVLYESRPKNSVA | WASTRES | MQYHRLPLS the result was 120 nM (3 of 3 replicates).
With KSGQSVLYESRNSNSVA | WASTRES | QGYHRLPLS the result was 160 nM (3 of 3 replicates).
With KSNHSVLYESRNKNSVA | WASTRES | QTYHRLPLS the result was 180 nM (3 of 3 replicates).
With KSQPSVLYESRNKNSVA | WASQRES | QQYHRLPLS the result was 270 nM (2 of 3 replicates).
With KSMQSVFYESRNKNSVA | WASTRWS | QQYHRLPLS the result was 280 nM (3 of 3 replicates).
With KSLQTVLYESRNKNSVA | WASTRES | QQYHRLPLN the result was 340 nM (2 of 3 replicates).
With KSNQSVLPESRNKNSVA | WASTRES | QQYHRLPLS the result was 610 nM (3 of 3 replicates).
With KYNQSVLYESRNKNSVA | WASTRES | QQRHRLPLS the result was 1.2 µM (1 of 3 replicates).
With KSHQSVLIESRNKNFVA | WASTRES | QQYHRLPLS the result was 1.3 µM (1 of 3 replicates).
With KSHQSVLYESRNKNSVQ | WASTRES | QQYHLLPLS the result was 1.5 µM (1 of 3 replicates).
With KSWQSVLYESRNKNSHA | WTSTRES | QQYHRLPLS the result was 2.1 µM (2 of 3 replicates).
With KSWQSVRYESRNKNSVA | WASFRES | QQYHRLPLS the result was 4.0 µM (1 of 3 replicates).
With KSWQSVLYESRNFNSVA | WMSTRES | QQYHRLPLS the result was 5.5 µM (1 of 3 replicates).
With KSKQSVLYQSRNKNSVA | WASTREC | QQYHRLPLS the result was 7.9 µM (3 of 3 replicates).
With KSHQSWLYESINKNSVA | WASTRES | QQYHRLPLS the result was 13 µM (3 of 3 replicates).
With GSQQSVLYESRNKNSVA | WASTRES | QGYHRLPLS the result was 13 µM (2 of 3 replicates).
With KSFQSVLYESRNKNSVA | WADTRES | QQTHRLPLS the result was 18 µM (1 of 3 replicates).
With KSIQSFLYESRNKNSVA | WASTRES | NQYHRLPLS the result was 19 µM (1 of 3 replicates).
With HSRQSVLYESRNKNSVA | WASTCES | QQYHRLPLS the result was 19 µM (3 of 3 replicates).
With KSWQSVIYESRNKNSVA | WASTRES | TQYHRLPLS the result was 22 µM (1 of 3 replicates).
With KSRQSVLYESLNKNSVA | WASTRES | QQYHRLPLS the result was 68 µM (1 of 3 replicates).
With KSWQSVLYESRNKNSVA | WASTRES | QQYHRTKLS the result was 130 µM (3 of 3 replicates).
With KSRQSVLYESRNKNSVA | WASTRES | QQYVRLPLS the result was no signal (0 of 3 replicates).
With KSCQSVSYESRNKNSPA | WASTRES | QQYHRLPLS the result was no signal (0 of 3 replicates).
With KSGQSILYESRNKNSQA | WASTRES | QQYHRLPLS the result was no signal (0 of 3 replicates).
With KSAQSVLYESRNKNSPA | WASTRES | QQYHRLPWS the result was no signal (0 of 3 replicates).
With KSPQSVQYESRNKNSVA | WASTRES | QQYHRLRLS the result was no signal (0 of 3 replicates).
With KSTFSVLYESRNKNSVA | WACTRES | QQYHRLPLS the result was no signal (0 of 3 replicates).
With KSHNSVLYESRNKNSVA | WASTRES | QQYHRLPKS the result was no signal (0 of 3 replicates).
With KSMQSVLYESRNKNYVA | WASTRES | QQYHRLPLS the result was no signal (0 of 3 replicates).
With KSFQSVLYESRNKKSVA | WASTRES | QQQHRLPLS the result was no signal (0 of 3 replicates).
With KSLQSVLLESWNKNSVA | WASTRES | QQYHRLPLS the result was no signal (0 of 3 replicates).

For reference, 5 entries of the list once more:

| CDR-L1 | CDR-L2 | CDR-L3 | Kd | detected |
|---|---|---|---|---|
| KSWQSVLYESRNKNSHA | WTSTRES | QQYHRLPLS | 2.1 µM | 2/3 |
| KSQPSVLYESRNKNSVA | WASQRES | QQYHRLPLS | 270 nM | 2/3 |
| KSFQSVLYESRNKKSVA | WASTRES | QQQHRLPLS | no signal | 0/3 |
| KSFQSVLYESRNQNSVA | WASTRES | QQYGRLPLS | 64 nM | 3/3 |
| KSRQSVLYESRNKNSVA | WASTRES | QQYHRLPLS | 16 nM | 3/3 |